This passage reports side effects results from patent US20040170711A1, “Medical effect of Jojoba oil in the treatment of anal diseases” (Egyptian Natural Oil, priority 2001, published 2004).

The series has as its system human body. Briefly: side effects of Jojoba oil and its preparations. Particulars: in vivo.

On to Jojoba oil, for which the side effects entry was “has not any side-effects”.
